The record followed here is US20250000864A1, “GONADOTROPIN-RELEASING HORMONE ANTAGONIST, AND PREPARATION METHOD THEREFOR AND USE THEREOF” (SHANDONG LUYE PHARMACEUTICAL CO., LTD., priority 2021, published 2025).

One data set has as its system Caco-2 cells. Put plainly: Caco-2 two-way permeability and efflux. Format: in vitro ADME. As to conditions: Caco-2, 120 min incubation.
Data set [1] is described as follows: Pharmacokinetics in SD rats (i.v. and i.g.). The class given is in vivo.

The structures appear in SMILES notation.

`COCCN(C)Cc1c(-c2ccc(NC(=O)NOC)cc2)sc2c1c(=O)n(-c1ccc(OC)nn1)c(=O)n2Cc1c(F)cccc1F`: the “Mean Papp A to B” value with Caco-2 cells is recorded as 0.0317 10^−6 cm/s. In data set [1] (i.g 12 mg/kg), this compound had an AUClast of 604 ± 165 ng·h/mL, a Cmax of 220 ± 32 ng/mL and an MRTlast of 4.84 ± 2.10 h. Moreover, in data set [1] (i.v 1 mg/kg), the AUClast was 460 ± 163 ng·h/mL, the C0 amounted to 822 ± 274 ng/mL and the MRTlast is 1.16 ± 0.13 h.
